Source: patent US20140154251A1, “ANTI C-MET ANTIBODY AND USES THEREOF” (Samsung Electronics Co., Ltd., priority 2011, published 2014)

What was measured:
Akt = Akt phosphorylation in Caki-1 cells (phospho-AKT1 Ser473 ELISA); type: cell-based; settings: 5 ug/ml, 30 minutes, serum free; 5D5 = 100%
Description: (§1) To compare agonism of the 4 types of antibodies having improved affinities, as prepared in Example 5, Caki-1 cells (Korean Cell Line Bank) were used to confirm the degree of Akt phosphorylation. Mouse IgG was used as a negative control, and antibody 5D5 (a known agonist) was used as a positive control.
(§2) 2×10^5 cells/ml of Caki-1 cells were introduced to a 96-well plate, and after 24 hours, each of 5 ug/ml of the antibodies was treated in serum free medium for 30 minutes. Lysis of the cells treated with the antibodies was performed and the degree of Akt phosphorylation was measured using a PathScan phospho-AKT1 (Ser473) chemiluminescent Sandwich ELISA kit (Cell Signaling, cat. no #7134S).
as §1, with “3” for “4”, “11,” for “5,”, “and a 5D5” for “and”, “antibody” for “antibody 5D5”
as §2, with “with” for “with the”, “and a” for “and the”, “phosphorylation inhibition” for “phosphorylation”, “(Ser473) a” for “(Ser473)”

[1] = system: MKN45 gastric cancer cells; assay: In vitro cell proliferation analysis (CellTiter-Glo); type: cell-based, human; settings: 0.008 ug/ml, 72 hours
Description: In order to identify anti-cancer effects of the 4 types of antibodies having improved affinities, as prepared in Example 5, in vitro cell proliferation analysis was performed using MKN45 gastric cancer cells on which c-Met is expressed (Japanese Cancer Research Bank, JCRB, Tokyo, Japan).
(§3) 1×10^4 MKN45 cells suspended in 50 ul of 5% (w/v) FBS/DMEM culture medium were introduced to each well of a 96-well plate. Then, the cells were either not treated or were treated with 50 ul of the 4 types of antibodies at a concentration of 0.008, 0.04, 0.2, or 1 ug/ml. After incubating for 72 hours, the number of cells was quantified by using a CellTiter-Glo Luminescent Cell Viability Assay Kit (Promega, G7570) with a leuminometer (PerkinElmer, 2104 Multilabel reader).
In order to identify anti-cancer effects of the three types of antibodies prepared in Example 11, in vitro cell proliferation analysis was performed using MKN45 gastric cancer cells having c-Met on the cell membrane (Japanese Cancer Research Bank, JCRB, Tokyo, Japan).
as §3, with “Then, the cells were either not treated or were treated with 50 ul of the 4 types of antibodies at a concentration of 0.008, 0.04, 0.2, or 1 ug/ml.” left out

B1: huAbF46: humanized anti-c-Met antibody from chAbF46, combination of H4-heavy chain and H4-light chain (antibody)
heavy: EVQLVESGGGLVQPGGSLRLSCAASGFTFTDYYMSWVRQAPGKGLEWLGFIRNKANGYTTEYSASVKGRFTISRDNSKNTLYLQMNSLRAEDTAVYYCARDNWFAYWGQGTLVTVSSASTKGPSVFPLAPSSKSTSGGTAALGCLVKDYFPEPVTVSWNSGALTSGVHTFPAVLQSSGLYSLSSVVTVPSSSLGTQTYICNVNHKPSNTKVDKKV[sequence of human IgG1 Fc omitted]
light: DIQMTQSPSSLSASVGDRVTITCKSSQSLLASGNQNNYLAWHQQKPGKAPKMLIIWASTRVSGVPSRFSGSGSGTDFTLTISSLQPEDFATYYCQQSYSAPLTFGQGTKVEIKRTVAAPSVFIFPPSDEQLKSGTASVVCLLNNFYPREAKVQWKVDNALQSGNSQESVTEQDSKDSTYSLSSTLTLSKADYEKHKVYACEVTHQGLSSPVTKSFNRGE
degree of Akt phosphorylation (Akt): 29.06% | relative cell viability [1]: 77%
